Target: Trypanothione reductase (Trypanosoma cruzi, UniProt P28593)
Test: Inhibition of Trypanosoma cruzi Trypanothione reductase

By UniProt entry, the sequences of proteins in these tests, tags left out. Where a name states a change or a piece, a line headed by the entry shows the natural chain unless it says otherwise.
UniProt P28593: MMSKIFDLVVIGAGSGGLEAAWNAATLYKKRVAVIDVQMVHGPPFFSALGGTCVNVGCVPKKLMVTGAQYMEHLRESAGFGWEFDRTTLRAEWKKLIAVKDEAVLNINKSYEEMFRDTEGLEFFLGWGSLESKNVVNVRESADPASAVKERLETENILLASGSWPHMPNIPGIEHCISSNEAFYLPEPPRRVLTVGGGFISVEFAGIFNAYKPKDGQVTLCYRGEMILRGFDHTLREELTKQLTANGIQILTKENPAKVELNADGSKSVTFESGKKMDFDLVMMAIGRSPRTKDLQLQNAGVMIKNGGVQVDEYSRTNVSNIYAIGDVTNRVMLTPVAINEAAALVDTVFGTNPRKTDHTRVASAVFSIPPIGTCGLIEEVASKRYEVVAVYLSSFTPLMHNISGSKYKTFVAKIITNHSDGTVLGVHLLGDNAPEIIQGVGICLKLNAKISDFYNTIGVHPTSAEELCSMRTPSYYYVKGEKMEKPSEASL

With `CC1CCCCC12NC(=O)N(CC(=O)Nc1ccccc1Sc1ccccc1)C2=O` (stereo unspecified) the IC50 was 84.4 µM.

Source: ChEMBL document CHEMBL1153395, “Development of a novel virtual screening cascade protocol to identify potential trypanothione reductase inhibitors” (J Med Chem, 2009)
